Experimental findings from ChEMBL document CHEMBL1126779, “Antagonism of 1-(2,5-dimethoxy-4-methylphenyl)-2-aminopropane stimulus with a newly identified 5-HT2- versus 5-HT1C-selective antagonist” (J Med Chem, 1993) are described below.

By UniProt entry, the sequences of proteins in these tests, tags left out.
UniProt P19327, whole entry: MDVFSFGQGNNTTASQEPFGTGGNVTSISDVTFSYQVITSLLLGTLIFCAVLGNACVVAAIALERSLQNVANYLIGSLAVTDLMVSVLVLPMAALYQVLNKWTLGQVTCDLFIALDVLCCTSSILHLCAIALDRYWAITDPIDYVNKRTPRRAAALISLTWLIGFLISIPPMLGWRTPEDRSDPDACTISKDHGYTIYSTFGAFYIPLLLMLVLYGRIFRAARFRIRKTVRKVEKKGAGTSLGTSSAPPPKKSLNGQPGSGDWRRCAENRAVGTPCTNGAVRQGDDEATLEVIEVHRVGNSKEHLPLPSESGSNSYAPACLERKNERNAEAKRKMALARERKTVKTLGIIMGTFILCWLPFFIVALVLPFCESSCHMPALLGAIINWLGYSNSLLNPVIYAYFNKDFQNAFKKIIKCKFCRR

For the assay, the target named is 5-hydroxytryptamine receptor 1A (Rattus norvegicus, UniProt P19327). Nature of the assay: Tested for binding affinity against 5-hydroxytryptamine 1A receptor from rat frontal cortical regions using [3H]8-OH-DPAT as radioligand.

`O=C(NC1CCN(CCCOc2ccc(F)cc2)CC1)c1ccccc1` displayed an inhibition constant Ki of 4 µM.

As usually defined, the Ki is a measure of affinity in units of concentration, obtained from inhibition or displacement.
